The values below come from ChEMBL document CHEMBL3822371, “Rapid Discovery and Structure-Activity Relationships of Pyrazolopyrimidines That Potently Suppress Breast Cancer Cell Growth via SRC Kinase Inhibition with Exceptional Selectivity over ABL Kinase” (J Med Chem, 2016).

Molecules are shown by their SMILES.

The nature of data set [1]: Fraction unbound in human plasma after 24 hrs by LC-MS/MS analysis. The data set is classed as ADME, cell-free.
Data set [2] has as its system Plasma. Briefly: Fraction unbound in rat plasma after 24 hrs by LC-MS/MS analysis. Format: ADME, cell-free.

With `COc1cc(-c2nn(CCN3CCC(N(C)C)CC3)c3ncnc(N)c23)ccc1NC(=O)OC(C)(C)C`, the Fu in data set [1] is listed as 19.1%; in data set [2] it was 9.4%.
